Literature values, collected in US20110184379A1, “METHOD AND SYSTEM TO DEFINE PATIENT SPECIFIC THERAPEUTIC REGIMENS BY MEANS OF PHARMACOKINETIC AND PHARMACODYNAMIC TOOLS” (MEDTRONIC, INC., priority 2008, published 2011).

Details: subcutaneously

## interferon-α
  dose administered without adverse reactions: up to 300 million IU/m^2
